Source: patent US8735406B2, “8-oxodihydropurine derivative” (Dainippon Sumitomo Pharma Co., Ltd., priority 2009, dated 2014)
Read-outs that look alike come from different tables or passages of the source.

By UniProt entry, the sequences of proteins in these tests, tags left out.
UniProt P97612, whole entry: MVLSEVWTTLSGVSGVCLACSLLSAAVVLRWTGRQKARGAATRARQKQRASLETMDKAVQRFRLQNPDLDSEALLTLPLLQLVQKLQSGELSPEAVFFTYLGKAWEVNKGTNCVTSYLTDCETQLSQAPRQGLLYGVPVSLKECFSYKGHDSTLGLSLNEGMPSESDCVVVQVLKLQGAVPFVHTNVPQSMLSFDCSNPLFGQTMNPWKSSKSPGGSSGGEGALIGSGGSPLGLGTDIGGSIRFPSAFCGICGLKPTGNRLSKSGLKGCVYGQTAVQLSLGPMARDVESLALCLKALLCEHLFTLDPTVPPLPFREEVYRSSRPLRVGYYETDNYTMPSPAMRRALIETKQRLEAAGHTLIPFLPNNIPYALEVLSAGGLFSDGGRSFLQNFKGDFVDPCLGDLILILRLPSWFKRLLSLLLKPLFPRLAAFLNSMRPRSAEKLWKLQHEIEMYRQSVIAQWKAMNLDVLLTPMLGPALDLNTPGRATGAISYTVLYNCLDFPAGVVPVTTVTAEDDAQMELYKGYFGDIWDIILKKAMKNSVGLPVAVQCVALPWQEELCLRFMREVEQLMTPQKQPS

Biological target: FAAH (Rattus norvegicus, UniProt P97612)
Test: Determination of FAAH inhibitory activity in rat (rat brain membrane preparations, [3H]-anandamide hydrolysis)
[1] = read-out: FAAH Inhibition IC50, test substance 0.1 nM to 1 μM
[2] = 100 nM test substance, tested form: HCl
[3] = read-out: FAAH Inhibition IC50, test substance 0.1 nM to 1 μM, tested form: HCl

Row | FAAH Inhibition, Inhibition Rate at 100 nM (100 nM test substance) | IC50 [1] | SMILES | other results
1 | 106% | 10 nM | Cc1ccc(CCc2ncc3c(n2)n(C(=O)N2CCC2)c(=O)n3C)cc1F | 
2 | 90% | 29 nM | Cn1c(=O)n(C(=O)N2CCC2)c2nc(CCc3cccc(Cl)c3)ncc21 | 
3 | 86% | 98 nM | Cn1c(=O)n(C(=O)N2CCC2)c2nc(CCc3ccc(C4CC4)c(F)c3)ncc21 | 
4 | 98% | 10 nM | CCc1cccc(CCc2ncc3c(n2)n(C(=O)N2CCC2)c(=O)n3C)c1 | 
5 | 100% | 7 nM | Cn1c(=O)n(C(=O)N2CCC2)c2nc(CCc3ccc(OC(F)F)cc3)ncc21 | 
6 | 97% | 10 nM | CCCc1cccc(CCc2ncc3c(n2)n(C(=O)N2CCC2)c(=O)n3C)c1 | 
7 | 87% | 37 nM | Cn1c(=O)n(C(=O)N2CCC2)c2nc(CCc3cc(F)ccc3F)ncc21 | 
8 | 125% | 4 nM | Cn1c(=O)n(C(=O)N2CCC2)c2nc(CCc3cccc(C(F)(F)F)c3)ncc21 | 
9 | 84% | 37 nM | Cn1c(=O)n(C(=O)N2CCC2)c2nc(CCc3ccc(F)cc3F)ncc21 | 
10 | 88% | 27 nM | Cn1c(=O)n(C(=O)N2CCC2)c2nc(CCc3ccc(F)c(C4CC4)c3)ncc21 | 
11 | 88% | 98 nM | CCOc1ccc(CCc2ncc3c(n2)n(C(=O)N2CCC2)c(=O)n3C)cc1 | 
12 | 93% | 10 nM | Cn1c(=O)n(C(=O)N2CCC2)c2nc(CCc3ccc(F)c(F)c3)ncc21 | 
13 | 96% | 25 nM | Cn1c(=O)n(C(=O)N2CCC2)c2nc(CCc3cccc(OCC4CC4)c3)ncc21 | 
14 | 93% | 10 nM | Cc1cc(CCc2ncc3c(n2)n(C(=O)N2CCC2)c(=O)n3C)ccc1F | 

Second part, the compound before the results:

Row | SMILES | FAAH Inhibition, Inhibition Rate at 100 nM (100 nM test substance) | IC50 [1] | other results
15 | Cn1c(=O)n(C(=O)N2CCC(=O)C2)c2cnc(-c3ccccc3)nc21 | 84% | 48 nM | 
16 | COCCOCc1ncc2c(n1)n(C)c(=O)n2C(=O)N1CC(c2ccc(F)cc2)C1 |  |  | FAAH Inhibition, Inhibition Rate at 100 nM [2]: 119%; IC50 [3]: 3 nM
17 | CN(C)C(=O)n1c(=O)n(C)c2cnc(CCc3cccc(OC4CCCC4)c3)nc21 | 78% | 99 nM | 
18 | COc1cccc(CCc2ncc3c(n2)n(C(=O)N2CCC2)c(=O)n3C)c1 |  |  | FAAH Inhibition, Inhibition Rate at 100 nM (at 100 nM): 71%; IC50 (read-out: FAAH Inhibition IC50): 38 nM
19 | Cn1c(=O)n(C(=O)N2CCC2)c2nc(CCc3ccccc3OC(F)(F)F)ncc21 |  |  | FAAH Inhibition, Inhibition Rate at 100 nM (at 100 nM): 94%; IC50 (read-out: FAAH Inhibition IC50): 6 nM
20 | Cn1c(=O)n(C(=O)N2CCC2)c2nc(CCc3ccccc3Cl)ncc21 |  |  | FAAH Inhibition, Inhibition Rate at 100 nM (at 100 nM): 83%; IC50 (read-out: FAAH Inhibition IC50): 34 nM
21 | Cn1c(=O)n(C(=O)N2CCC(c3ccccc3)C2)c2cnc(-c3ccccc3)nc21 (centres unmarked) | 70% | 71 nM | 
22 | COc1ccc(CCc2ncc3c(n2)n(C(=O)N2CCC2)c(=O)n3C)cc1 |  |  | FAAH Inhibition, Inhibition Rate at 100 nM (at 100 nM): 83%; IC50 (read-out: FAAH Inhibition IC50): 28 nM
23 | Cn1c(=O)n(C(=O)N2CCC2)c2nc(-c3cccc(OC(F)F)c3)ncc21 | 106% | 9 nM | 
24 | Cn1c(=O)n(C(=O)N2CCC2)c2nc(-c3ccc(Cl)cc3)ncc21 | 88% | 14 nM | 
25 | CN(C)CCn1c(=O)n(C(=O)N2CCCC2)c2cnc(-c3ccccc3)nc21 |  | > 100 nM | FAAH Inhibition, Inhibition Rate (1000 nM) (1000 nM test substance (stated in the cell)): 45 (1000 nM) %
26 | Cn1c(=O)n(C(=O)N2CCC2)c2nc(CCc3ccc(OC4CCC4)cc3)ncc21 |  |  | FAAH Inhibition, Inhibition Rate at 100 nM [2]: 79%; IC50 [3]: 29 nM
27 | Cn1c(=O)n(C(=O)N2CCC2)c2nc(CCc3cccc(OC4CCC4)c3)ncc21 |  |  | FAAH Inhibition, Inhibition Rate at 100 nM [2]: 80%; IC50 [3]: 39 nM
28 | Cc1cccc(-c2ncc3c(n2)n(C(=O)N2CCC2)c(=O)n3C)c1 | 85% | 25 nM | 
29 | Cn1c(=O)n(C(=O)N2CCC2)c2nc(CCc3cccc(F)c3F)ncc21 |  |  | FAAH Inhibition, Inhibition Rate at 100 nM (at 100 nM): 103%; IC50 (read-out: FAAH Inhibition IC50): 8 nM
30 | CN(C)C(=O)n1c(=O)n(C)c2cnc(CCc3cccc(OCCF)c3)nc21 | 27% | > 100 nM | 
31 | Cn1c(=O)n(C(=O)N2CCC2)c2nc(CCc3cccc(OCCF)c3)ncc21 |  |  | FAAH Inhibition, Inhibition Rate at 100 nM [2]: 26%; IC50 [3]: > 100 nM
32 | Cc1ccc(CCc2ncc3c(n2)n(C(=O)N(C)C)c(=O)n3C)cc1F | 102% | 10 nM | 
33 | Cc1cc(-c2ncc3c(n2)n(C)c(=O)n3C(=O)N2CCCC2)ccc1F | 103% | 18 nM | 

Row | SMILES | FAAH Inhibition, Inhibition Rate at 100 nM (100 nM test substance) | IC50 [1] | other results
34 | CN(C)C(=O)n1c(=O)n(C)c2cnc(CCc3cccc(OCC4CCC4)c3)nc21 | 101% | 11 nM | 
35 | Cn1c(=O)n(C(=O)N2CCC2)c2nc(CCc3c(F)cccc3F)ncc21 |  |  | FAAH Inhibition, Inhibition Rate at 100 nM (at 100 nM): 91%; IC50 (read-out: FAAH Inhibition IC50): 22 nM
36 | Cn1c(=O)n(C(=O)N2CCC2)c2nc(COc3ccccc3C(F)(F)F)ncc21 |  |  | FAAH Inhibition, Inhibition Rate at 100 nM [2]: 99%; IC50 [3]: 9 nM
37 | CN(C)C(=O)n1c(=O)n(C)c2cnc(CCc3cccc(OC4CCC4)c3)nc21 | 58% | 100 nM | 
38 | Cn1c(=O)n(C(=O)N2CCC2)c2nc(CCc3ccccc3)ncc21 |  |  | FAAH Inhibition, Inhibition Rate at 100 nM (at 100 nM): 84%; IC50 (read-out: FAAH Inhibition IC50): 20 nM
39 | CCCOCc1ncc2c(n1)n(C)c(=O)n2C(=O)N1CC(c2cccc(F)c2)C1 |  |  | FAAH Inhibition, Inhibition Rate at 100 nM [2]: 69%; IC50 [3]: 32 nM
40 | Cn1c(=O)n(C(=O)N2CCC2)c2nc(-c3cccc(C(F)F)c3)ncc21 | 109% | 10 nM | 
41 | Cn1c(=O)n(C(=O)N2CC(c3cccc(F)c3)C2)c2cnc(COCC3CC3)nc21 | 72% | 52 nM | 
42 | Cc1ccccc1Cc1ncc2c(n1)n(C(=O)N1CCCC1)c(=O)n2C | 91% | 9 nM | 
43 | Cc1cc(C)c(CCc2ncc3c(n2)n(C(=O)N(C)C)c(=O)n3C)cc1C | 99% | 9 nM | 
44 | CCCOCc1ncc2c(n1)n(C)c(=O)n2C(=O)N1CC(c2ccc(OCC)cc2)C1 | 82% | 40 nM | 
45 | Cn1c(=O)n(C(=O)N2CCC2)c2nc(CCc3cccc(OCC(F)F)c3)ncc21 |  |  | FAAH Inhibition, Inhibition Rate at 100 nM [2]: 69%; IC50 [3]: 95 nM
46 | Cn1c(=O)n(C(=O)N2CCC2)c2nc(-c3cccc(OCc4ccccc4)c3)ncc21 | 78% | 44 nM | 
47 | Cn1c(=O)n(C(=O)N2CCC2)c2nc(-c3cccc(OCC(F)F)c3)ncc21 | 86% | 22 nM | 
48 | CN(C)C(=O)n1c(=O)n(C)c2cnc(-c3ccc(OCC(F)F)cc3)nc21 | 73% | 56 nM | 
49 | Cn1c(=O)n(C(=O)N2CCC2)c2nc(-c3ccc(C(F)(F)F)cc3)ncc21 | 76% | 39 nM | 
50 | Cn1c(=O)n(C(=O)N2CCC2)c2nc(-c3ccc(C(F)F)cc3)ncc21 | 109% | 10 nM | 
51 | Cn1c(=O)n(C(=O)N2CCC2)c2nc(-c3cccc(Cl)c3)ncc21 | 91% | 19 nM | 
52 | CN(C)C(=O)n1c(=O)n(C)c2cnc(CCc3ccc(OC(F)(F)F)cc3)nc21 | 103% | 10 nM | 

Row | SMILES | FAAH Inhibition, Inhibition Rate at 100 nM (100 nM test substance) | IC50 [1] | other results
53 | CN(C)C(=O)n1c(=O)n(C)c2cnc(CCc3ccccc3OC(F)F)nc21 | 64% | 55 nM | 
54 | CN(C)C(=O)n1c(=O)n(C)c2cnc(CCc3ccccc3Cl)nc21 | 100% | 10 nM | 
55 | Cn1c(=O)n(C(=O)N2CCC2)c2nc(-c3ccc(OC(F)F)cc3)ncc21 | 113% | 5 nM | 
56 | CCOCc1ncc2c(n1)n(C)c(=O)n2C(=O)N1CC(c2cccc(C(F)(F)F)c2)C1 | 76% | 25 nM | 
57 | Cc1ccc(-c2ncc3c(n2)n(C(=O)N2CCC2)c(=O)n3C)cc1 | 75% | 86 nM | 
58 | Cn1c(=O)n(C(=O)N2CCC2)c2nc(CCc3ccc(OC4CCCC4)cc3)ncc21 |  |  | FAAH Inhibition, Inhibition Rate at 100 nM [2]: 109%; IC50 [3]: 7 nM
59 | CN(C)C(=O)n1c(=O)n(C)c2cnc(CCc3ccc(Cl)cc3)nc21 | 75% | 23 nM | 
60 | Cn1c(=O)n(C(=O)N2CCC2)c2nc(CCc3ccccc3C(F)F)ncc21 |  |  | FAAH Inhibition, Inhibition Rate at 100 nM (at 100 nM): 90%; IC50 (read-out: FAAH Inhibition IC50): 14 nM
61 | Cn1c(=O)n(C(=O)N2CCC2)c2nc(CCc3ccccc3OC(F)F)ncc21 |  |  | FAAH Inhibition, Inhibition Rate at 100 nM (at 100 nM): 97%; IC50 (read-out: FAAH Inhibition IC50): 14 nM
62 | CCCOCc1ncc2c(n1)n(C)c(=O)n2C(=O)N1CC(c2cccc(C(F)(F)F)c2)C1 | 80% | 32 nM | 
63 | Cn1c(=O)n(C(=O)N2CCC2)c2nc(COc3cccc(C(F)(F)F)c3)ncc21 |  |  | FAAH Inhibition, Inhibition Rate at 100 nM [2]: 95%; IC50 [3]: 11 nM
64 | COc1ccccc1-c1ncc2c(n1)n(C(=O)N1CCCC1)c(=O)n2C | 43% | > 100 nM | 
65 | Cn1c(=O)n(C(=O)N2CCC2)c2nc(COc3cccc(OC(F)(F)F)c3)ncc21 |  |  | FAAH Inhibition, Inhibition Rate at 100 nM [2]: 117%; IC50 [3]: 1 nM
66 | Cn1c(=O)n(C(=O)N2CCC2)c2nc(CCc3ccccc3C(F)(F)F)ncc21 |  |  | FAAH Inhibition, Inhibition Rate at 100 nM (at 100 nM): 98%; IC50 (read-out: FAAH Inhibition IC50): 8 nM
67 | Cn1c(=O)n(C(=O)N2CCC2)c2nc(CCc3ccc(OCCF)cc3)ncc21 |  |  | FAAH Inhibition, Inhibition Rate at 100 nM [2]: 40%; IC50 [3]: 128 nM
68 | Cn1c(=O)n(C(=O)N2CCC2)c2nc(-c3cccc(OCC(F)(F)F)c3)ncc21 | 79% | 30 nM | 
69 | Cn1c(=O)n(C(=O)N2CCC2)c2nc(CCc3cccc(OC(F)(F)F)c3)ncc21 |  |  | FAAH Inhibition, Inhibition Rate at 100 nM (at 100 nM): 101%; IC50 (read-out: FAAH Inhibition IC50): 6 nM
70 | CN(C)C(=O)n1c(=O)n(C)c2cnc(CCc3ccccc3)nc21 | 69% | 47 nM | 
